Results from ChEMBL document CHEMBL5247574, “Recent Progress on Bile Acid Receptor Modulators for Treatment of Metabolic Diseases” (J Med Chem, 2016).

Molecular target: T1, Bile acid receptor (Homo sapiens) (UniProt Q96RI1)
T1 sequence (whole entry): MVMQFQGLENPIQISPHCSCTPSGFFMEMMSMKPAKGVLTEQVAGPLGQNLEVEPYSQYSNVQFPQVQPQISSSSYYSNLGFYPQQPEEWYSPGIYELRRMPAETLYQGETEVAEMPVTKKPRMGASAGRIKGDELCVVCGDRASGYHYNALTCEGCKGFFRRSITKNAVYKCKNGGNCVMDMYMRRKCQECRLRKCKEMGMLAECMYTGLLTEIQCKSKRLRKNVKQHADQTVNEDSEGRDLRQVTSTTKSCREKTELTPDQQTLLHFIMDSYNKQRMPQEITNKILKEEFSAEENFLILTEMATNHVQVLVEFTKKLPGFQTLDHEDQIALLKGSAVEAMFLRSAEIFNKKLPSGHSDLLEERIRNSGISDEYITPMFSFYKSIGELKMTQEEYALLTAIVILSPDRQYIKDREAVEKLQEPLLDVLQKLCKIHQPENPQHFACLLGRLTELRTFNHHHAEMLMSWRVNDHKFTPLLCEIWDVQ
Test: Binding affinity to FXR (unknown origin)
Conditions: filed as agonist

- K: 70 nM
SMILES: O=C(NC1CCCCC1)C(C1CCCCC1)n1c(-c2ccc(Cl)cc2)nc2ccccc21 (stereo unspecified)
